Assay results published in patent US20130310347A1, “MULTI-MODALITY MOLECULAR IMAGING HIGH-THROUGHPUT ASSAY FOR IDENTIFYING HEAT SHOCK PROTEIN 90 (HSP90) INHIBITORS” (The Board of Trustees of the Leland Stanford Junior …, priority 2012, published 2013).

The chains behind the UniProt entries cited, without tags or fusion partners.
UniProt P08238, whole entry: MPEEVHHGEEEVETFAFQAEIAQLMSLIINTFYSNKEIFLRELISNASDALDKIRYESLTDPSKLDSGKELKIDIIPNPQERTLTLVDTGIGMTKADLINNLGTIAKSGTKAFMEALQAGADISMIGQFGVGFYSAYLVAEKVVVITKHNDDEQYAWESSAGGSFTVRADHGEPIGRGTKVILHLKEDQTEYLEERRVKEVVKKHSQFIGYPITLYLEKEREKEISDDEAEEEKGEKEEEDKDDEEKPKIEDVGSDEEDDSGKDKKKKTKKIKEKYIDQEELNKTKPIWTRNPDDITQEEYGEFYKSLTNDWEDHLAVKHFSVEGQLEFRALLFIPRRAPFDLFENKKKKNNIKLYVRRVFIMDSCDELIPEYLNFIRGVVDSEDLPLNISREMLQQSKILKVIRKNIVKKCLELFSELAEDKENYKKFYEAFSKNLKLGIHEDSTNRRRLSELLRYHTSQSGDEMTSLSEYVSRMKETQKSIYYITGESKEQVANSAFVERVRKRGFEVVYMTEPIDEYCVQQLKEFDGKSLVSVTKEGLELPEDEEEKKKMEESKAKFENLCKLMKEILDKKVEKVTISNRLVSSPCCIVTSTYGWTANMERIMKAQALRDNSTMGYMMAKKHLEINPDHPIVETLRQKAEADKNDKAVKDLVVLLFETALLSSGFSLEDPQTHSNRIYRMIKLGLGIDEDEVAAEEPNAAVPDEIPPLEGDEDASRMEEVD

Tests used:
Hsp90α/p23 interactions [1] = target: T1, Hsp90α/p23 interactions (Homo sapiens, UniProt P07900); assay: RL/FL bioluminescence imaging of 293T xenografts in living mice; details: 4 doses of A17 (80 mg/kg); 43 h; p>0.05
Description: (§1) Maximum radiance (photons/sec/cm^2/sr) from RL signals was normalized to that of FL signals at each site and at each time point to account for the effect of CP9 on cell proliferation. The RL/FL ratios were normalized to that of time 0 h to monitor the individual change in Hsp90(α/β)/p23 interactions in each mouse over time. Results were expressed as mean±S.E.M for the control and treatment groups for Hsp90α/p23 (left panel) and Hsp90β/p23 interactions (right panel).
(§2) To monitor the inhibition of Hsp90(α/β)/p23 interactions by CP9 in living mice, a second reporter (FL-eGFP) was introduced into the 293T cells stably expressing Hsp90(α/β)/p23 split RL reporters (now referred as 293T(α/β)—FG cells). […] Baseline RL and FL signals in each implanted tumor were determined upon i.v. substrate injection. […]
(§3) Mice were gas anesthetized using isofluorane (2% in 100% oxygen, 1 L/min) during all injection and imaging procedures and kept at 37° C. […] Baseline RL activities in the implanted tumors in living mice were determined by i.v. injection of 30 μg cltz (in 150 μl of 5% ethanol: 95% PBS) and image acquisition of 3 mins. After a 30 mins wait for RL signals to decay, FL activities were determined by i.v. injection of 163 μg of D-Luc in 100 μl PBS with image acquisition of 10 sequences for 15 sec each to obtain the peak max radiance. […]

Hsp90β/p23 interactions = Hsp90β/p23 interactions (Homo sapiens, UniProt P08238); assay: as above; details: 4 doses of A17 (80 mg/kg); p>0.05
Description: as §1, §2, §3

[2] = tested on: Hsp90(α/β)/p23 interactions; assay: RL/FL bioluminescence imaging of 293T xenografts, both isoforms stated jointly; details: same dosing regimen as CP9; p>0.05
Text: To monitor the inhibition of Hsp90(α/β)/p23 interactions by CP9 in living mice, a second reporter (FL-eGFP) was introduced into the 293T cells stably expressing Hsp90(α/β)/p23 split RL reporters (now referred as 293T(α/β)—FG cells). Although ^18F-FLT has also been used to monitor tumor cell proliferation in small animals by PET (Tseng et al., (2005) J. Nucl. Med. 46: 1851-1857), FL imaging was used because of the higher sensitivity and ease of performing sequentially with RL imaging for Hsp90(α/β)/p23 interactions. […] Baseline RL and FL signals in each implanted tumor were determined upon i.v. substrate injection. […]
The efficacy of A17 in disruption of Hsp90(α/β)/p23 interactions and inhibition of cellular proliferation in living mice was monitored by BLI using the same dosing regimen as CP9. […]
as §3

Hsp90α/p23 interactions [3] = target: T1, Hsp90α/p23 interactions; assay: CP9 analogue evaluation, RL/FL imaging in 293Tα-FG cells
Description: To improve the efficacy of CP9 in disruption of Hsp90(α/β)/p23 interactions in living mice, a structure-activity relationship (SAR) study was performed using 62 structural analogues (10 μM) with different modifications on CP9, as shown in FIGS. 2A-2G, using the 293T(α/β)-FG stable cells. Their effects on Hsp90(α/β)/p23 interactions and cell proliferation were monitored by sequential RL (FIG. 11A) and FL imaging at 24 h. CP9, PU-H71 and 17-AAG were used as positive controls. The net effect on Hsp90(α/β)/p23 interactions was determined by normalizing RL to that of FL signals and to that of carrier control-treated cells (FIG. 11B). […]
CP9 (0.3-10 μM), 17-AAG (10 μM) and PU-H71 (5 μM) were used as positive controls in triplicate wells. The efficacy of the analogues in disruption of Hsp90(α/β)/p23 and cell proliferation were monitored by RL imaging (2 h post upon addition of ENDUREN® at 30 μM final concentration) followed by FL imaging (10 mins post addition of D-Luc at 0.225 mg/ml final concentration) using a cooled CCD camera (1 min and 10 sec for RL and FL imaging, respectively). […] The effect of the CP9 analogues on degradation of Hsp90 client proteins in 293T cells were also monitored by western blotting as described above.

Cc1cc(NC(=O)CSc2nc(-c3ccco3)cc(C(F)(F)F)n2)no1
Hsp90α/p23 interactions in mice bearing 293T xenografts (Hsp90α/p23 interactions [1]): decreases in Hsp90 α/p23 interactions at 43 h but of limited statistical significance | Hsp90β/p23 interactions in mice bearing 293T xenografts (Hsp90β/p23 interactions): did not lead to significant decrease | Hsp90(α/β)/p23 interactions in tumor xenografts vs carrier control mice [2]: failed to significantly decrease | fold reduction in IC50 for inhibition of Hsp90α/p23 signals compared to CP9 (Hsp90α/p23 interactions [3]): 3 fold | IC50 (Hsp90α/p23 interactions [3]; read-out: IC50 for inhibition of Hsp90α/p23 signals, time- and dose-response curves in 293T-FG cells): 150 nM
